Results as given in US6713261B1, “Method for assessing genotoxicity of a compound” (Institut National de la Sante et de la Recherche Medicale, priority 1999, dated 2004).

Tested on: CTLL-2 cells
Experiment: Measurement of apoptosis (Annexin V-FITC, YOPRO-1) in CTLL-2 cells
Type: cell-based, mouse
Conditions: in parallel to micronucleus test

Substance: anisomycin C
- induction of apoptosis (result in words): induce apoptosis
